# Laboratory results: ChEMBL document CHEMBL4680104, “Structure-Based Optimization of Small-Molecule Inhibitors for the β-Catenin/B-Cell Lymphoma 9 Protein-Protein Interaction” (J Med Chem, 2018)
# Organism: Homo sapiens
# Assay: Selectivity index, ratio of Ki for inhibition of protein interaction between beta-catenin (unknown origin)/E-cadherin (unknown origin) to Ki for inhibition of protein interaction between beta-catenin (unknown origin)/BCL9 (unknown origin)
compound,measurement,value
Cl.Cl.O=C(Nc1ccc(O[C@H]2CCNC2)c(-c2ccc(F)cc2)c1)c1ccc(O[C@H]2CCNC2)c(-c2ccc(F)c(F)c2)c1,Ratio Ki,125
